Bioassay records from PubChem BioAssay.
miR122 inh: inhibitors of miR-122 in Huh7 cells; Huh7 miR-122 Renilla luciferase sensor, 48 h; neutral wells = 0, positive control = 100; activation (reporter increase), % at 12.5 µM; 0.3% of 340,000 active;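 active means mean replicate activation score at least 90 and every replicate individually at or above 90; inconclusive means only one of the two criteria met; inactive means neither criterion met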;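 further: higher luciferase means less miR-122 activity so hits act as miR-122 inhibitors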
UUG fidelity: modulators of start codon recognition fidelity in yeast; AID 602363; activity score, % at 18.7 µM; S. cerevisiae UUG-firefly luciferase reporter, luminescence/redox ratio; 0.13% of 350,000 active;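 active = replicate mean at a twofold rise or more, about +100% in these data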;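 note: firefly luciferase made from a UUG start codon reports start codon fidelity; reporter light over untreated wells divided by growth signal over untreated wells; some hits fall short of that in this replicate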
Cneo AK release: causes C. neoformans cell lysis | adenylate kinase release luminescence, 4 h; normalised: neutral wells 0, clomiphene wells 100 | lysis activity, % at 15 µM | 0.2% of 360,000 active | AID 651654;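 active means mean lysis activity across replicates of at least 80%, whatever share of replicates individually reach that level; inactive means mean lysis activity below 80%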
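Test system: log-phase Cryptococcus neoformans yeast cells. Input: 5 × 10^6 yeast cells/mL. Medium: fresh YPD growth medium. Doses: single dose. Incubation: static 4 h at 37 °C with compound, 1 h detection. Measured by: luminescent adenylate kinase detection reagent. Read-out: signal increase indicating cell lysis. Benchmarks: Clomiphene.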
FN deposit inh: fibronectin deposition inhibition | AH1F fibroblasts, Alexa488-fibronectin deposition fluorescence, overnight | inhibition, % at 12.6 µM | 0.086% of 350,000 active;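 active means mean inhibition across replicates of 30% or more, regardless of how many single replicates reach that level; inconclusive means mean under 30% yet at least half of replicates reach 30%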;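 further: positive control wells lacked labelled fibronectin entirely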
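Measured by – fluorescence 485/525 nm · System – AH1F fibroblast monolayer, labelled fibronectin deposition · Amount – 10000 cells per well · Buffer or medium – serum-reduced DMEM (2% serum) · Doses – single dose, pinned · Also added – fluorescent fibronectin at 24 nM final · Schedule – 1 h cell attachment, overnight exposure to compound and label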
HIV Env fusion: HIV envelope-mediated fusion inhibition. HeLa-JRFL Env/CEM21 cell fusion, luciferase. inhibition, % at 12.3 µM. 1.1% of 360,000 active;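 active means mean replicate inhibition score of at least 50 and every replicate individually at or above 50; inconclusive means only one of the two criteria met; inactive means mean below 50 and not all replicates reaching 50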;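 further: 0% = plate neutral controls and 100% = maraviroc near 300 nM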
PGC1a acetyl inh: modulators of PGC1a acetylation | 0.17% of 350,000 active | inhibition, % at 15.6 µM | U2OS PGC1a acetylation, AlphaScreen anti-acetyl-lysine; with virally co-expressed GCN5 acetyltransferase;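 active means every replicate shows inhibition of at least 40%; inconclusive means mean inhibition at least 40% but some replicate below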;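 further: 0% = neutral control wells and 100% = positive control wells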
* hit, by the source's call; ? = inconclusive; · = no result given; [ ] = remark or other dose. Hits are enriched below; roughly 1.5% of the tested compounds scored in any of these assays.

(1) C[C@H](CO)N1C[C@H](C)[C@H](CN(C)C(=O)Nc2ccccc2)Oc2c(NS(=O)(=O)c3ccc(F)cc3)cccc2C1=O
(2) C[C@@H]1CN([C@@H](C)CO)C(=O)c2cccc(NS(=O)(=O)c3ccc(F)cc3)c2O[C@H]1CN(C)C(=O)Nc1ccc(C(F)(F)F)cc1
(3) C[C@H]1CN([C@@H](C)CO)C(=O)c2cccc(NS(=O)(=O)c3ccc(F)cc3)c2O[C@H]1CN(C)C(=O)Nc1ccccc1
(4) C[C@H](CO)N1C[C@H](C)[C@H](CN(C)C(=O)Nc2ccc(C(F)(F)F)cc2)Oc2c(NS(=O)(=O)c3ccc(F)cc3)cccc2C1=O
(5) CCCc1ccc2oc(C(=O)N3CCC(N4CCCC(O)C4)CC3)c(C)c2c1 (stereo not given)
(6) COc1cccc(C#Cc2ccc3c(c2)O[C@H](CN(C)C(=O)CN2CCOCC2)[C@H](C)CN([C@@H](C)CO)S3(=O)=O)c1
(7) COc1cccc(NC(=O)C2(C)CCN2Cc2ccc(OC)c3ccccc23)c1 (stereo not given)
(8) CC1(C(=O)Nc2ccc3c(c2)OCO3)CCN1Cc1csc2ccccc12 (stereo not given)

Screen / compound no.	1	2	3	4	5	6	7	8
miR122 inh	-6[16.7 µM]	3[16.7 µM]	-2[16.7 µM]	37[16.7 µM]	8	16[16.7 µM]	-3	-1
UUG fidelity	3	-4	9	-3	-13	49	·	-3
Cneo AK release	-1	0	-1	-2	1	0	1	0
FN deposit inh	·	·	·	·	-18	-2	4	1
HIV Env fusion	88*[16.7 µM]	22[16.7 µM]	-72[16.7 µM]	57*[16.7 µM]	-8	-7[16.7 µM]	26	63*
PGC1a acetyl inh	0	-3	-10	-3	12	24	-17	-15

(9) Cc1ccc(NC(=O)C2(C)CCN2Cc2csc3ccccc23)cc1 (stereo not given)
(10) COc1cccc(CN2CCC2(C)C(=O)Nc2cccc(Oc3ccccc3)c2)c1OC (stereo not given)
(11) COc1ccc(NC(=O)C2=CC(c3cccs3)=NS(=O)(=O)N2C)cc1
(12) Cc1nc(N2N=C3/C(=C/c4ccc(F)cc4)CCCC3C2c2ccc(F)cc2)sc1C(=O)N(C)C (stereo not given)
(13) O=CN1CCCN(C(=O)CC2C(=O)NCCN2Cc2cccc(Oc3ccccc3)c2)CC1 (stereo not given)
(14) O=C1NCCN(Cc2cccc(Oc3ccccc3)c2)C1CC(=O)N1CCCCC1 (stereo not given)
(15) Cc1cc(/C=C(\C#N)C(=O)Nc2ccc(F)cc2)c(C)n1-c1ccc(N2CCOCC2)c([N+](=O)[O-])c1
(16) CCOC(=O)Cn1nnnc1CN(Cc1cccs1)Cc1cc2cc(C)ccc2[nH]c1=O

Screen / compound no.	9	10	11	12	13	14	15	16
miR122 inh	-2	-6	0	1	-5	·	-6	·
UUG fidelity	2	-2	-3	-17	2	-3	-11	·
Cneo AK release	0	-1	1	8	-2	1	0	·
FN deposit inh	-7	-3	-4	1	-3	2	-3	4
HIV Env fusion	?	86*	89*	-10	3	72*	85*	31
PGC1a acetyl inh	-19	-10	6	4	-9	·	-3	·

(17) CCOC(=O)Cn1nnnc1CN(CCc1ccccc1)Cc1cc2cc(CC)ccc2[nH]c1=O
(18) Cc1ccc(N2C(=O)C(NC(=O)c3ccccc3F)(C(F)(F)F)C3=C2CC(C)(C)CC3=O)cc1 (stereo not given)
(19) C[C@H](CO)N1C[C@H](C)[C@H](CN(C)S(=O)(=O)c2ccccc2)Oc2ccc(NC(=O)Nc3ccc4c(c3)OCO4)cc2CC1=O
(20) C[C@H](CO)N1C[C@H](C)[C@@H](CN(C)S(=O)(=O)c2ccccc2)Oc2ccc(NC(=O)Nc3ccc4c(c3)OCO4)cc2CC1=O
(21) Cc1ccc(S(=O)(=O)N(C)C[C@@H]2Oc3ccc(NC(=O)Nc4ccc5c(c4)OCO5)cc3CC(=O)N([C@@H](C)CO)C[C@@H]2C)cc1
(22) CCN(CC)C(=O)COc1ccc(S(=O)(=O)N2CCOCC2)cc1
(23) CCCCCCCCN1C(=O)[C@H](CC(=O)NCCCC)C[C@@]2(C(=O)OCC)CCCC=C12
(24) CCCCCCCCN1C(=O)[C@H](CC(=O)N2CCCCC2)C[C@@]2(C(=O)OCC)CCCC=C12

Screen / compound no.	17	18	19	20	21	22	23	24
miR122 inh	1	-4	-2[16.7 µM]	-7[16.7 µM]	113*[16.7 µM]	-5	·	·
UUG fidelity	-7	-12	·	·	-8	-21	·	·
Cneo AK release	-5	5	·	·	-2	1	·	·
FN deposit inh	4	-2	3	6	·	-12	16	-1
HIV Env fusion	119*	-5	75*[16.7 µM]	-4[16.7 µM]	-137[16.7 µM]	-23	97*	89*
PGC1a acetyl inh	5	1	-4	-9	-7	1	·	·

An excerpt of these results, with two lines to a compound.
Results follow in this order: miR122 inh | UUG fidelity | Cneo AK release | FN deposit inh | HIV Env fusion | PGC1a acetyl inh
19	C[C@H](CO)N1C[C@H](C)[C@H](CN(C)S(=O)(=O)c2ccccc2)Oc2ccc(NC(=O)Nc3ccc4c(c3)OCO4)cc2CC1=O
 : -2[16.7 µM] | · | · | 3 | 75*[16.7 µM] | -4
20	C[C@H](CO)N1C[C@H](C)[C@@H](CN(C)S(=O)(=O)c2ccccc2)Oc2ccc(NC(=O)Nc3ccc4c(c3)OCO4)cc2CC1=O
 : -7[16.7 µM] | · | · | 6 | -4[16.7 µM] | -9

Next section:
(25) COCCCNC(=O)Cc1c(C)c2c(cc(C)c3c(C(C)(C)C)coc32)oc1=O
(26) COCCNC(=O)Cc1c(C)c2c(cc(C)c3c(C)coc32)oc1=O
(27) C[C@@H]1CN([C@H](C)CO)C(=O)c2cc(NC(=O)c3ccncc3)ccc2O[C@@H]1CN(C)S(=O)(=O)c1ccc(Cl)cc1
(28) COc1ccc(NC(=O)Nc2ccc3c(c2)C(=O)N([C@H](C)CO)C[C@H](C)[C@@H](CN(C)S(=O)(=O)c2ccc(OC)cc2)O3)cc1
(29) COc1ccc(S(=O)(=O)N(C)C[C@@H]2Oc3ccc(NC(=O)Nc4ccc5c(c4)OCO5)cc3C(=O)N([C@H](C)CO)C[C@@H]2C)cc1
(30) C[C@@H]1CN([C@@H](C)CO)C(=O)c2cc(NC(=O)c3ccncc3)ccc2O[C@@H]1CN(C)S(=O)(=O)c1ccc(Cl)cc1
(31) COc1ccc(NC(=O)Nc2ccc3c(c2)C(=O)N([C@@H](C)CO)C[C@H](C)[C@H](CN(C)S(=O)(=O)c2ccc(OC)cc2)O3)cc1
(32) C[C@@H]1CN([C@H](C)CO)C(=O)c2cc(NC(=O)Nc3ccccc3)ccc2O[C@@H]1CN(C)S(=O)(=O)c1ccccc1

Screen / compound no.	25	26	27	28	29	30	31	32
miR122 inh	90*	-8	179*[16.7 µM]	-7	-7[16.7 µM]	51[16.7 µM]	-20[16.7 µM]	6[16.7 µM]
UUG fidelity	-11	4	1	-24	-17	-5	-14	10
Cneo AK release	1	-1	-2	0	-1	1	-1	0
FN deposit inh	-27	7	5	4	1	5	·	·
HIV Env fusion	-295	5	·	29	76*[16.7 µM]	·	83*[16.7 µM]	75*[16.7 µM]
PGC1a acetyl inh	·	5	-1	-14	7	-1	-9	1

Gathered by group: the compounds so far containing a Cl atom.
(27) C[C@@H]1CN([C@H](C)CO)C(=O)c2cc(NC(=O)c3ccncc3)ccc2O[C@@H]1CN(C)S(=O)(=O)c1ccc(Cl)cc1
(30) C[C@@H]1CN([C@@H](C)CO)C(=O)c2cc(NC(=O)c3ccncc3)ccc2O[C@@H]1CN(C)S(=O)(=O)c1ccc(Cl)cc1

Screen / compound no.	27	30
miR122 inh	179*[16.7 µM]	51[16.7 µM]
UUG fidelity	1	-5
Cneo AK release	-2	1
FN deposit inh	5	5
HIV Env fusion	·	·
PGC1a acetyl inh	-1	-1

The list goes on.
(33) COc1ccc(NC(=O)Nc2ccc3c(c2)C(=O)N([C@H](C)CO)C[C@H](C)[C@H](CN(C)S(=O)(=O)c2ccc(C)cc2)O3)cc1
(34) COc1ccc(NC(=O)Nc2ccc3c(c2)C(=O)N([C@H](C)CO)C[C@H](C)[C@H](CN(C)S(=O)(=O)c2ccc(F)cc2)O3)cc1
(35) COc1ccc(NC(=O)Nc2ccc3c(c2)C(=O)N([C@@H](C)CO)C[C@H](C)[C@H](CN(C)S(=O)(=O)c2ccc(Cl)cc2)O3)cc1
(36) COc1ccc2nc(-c3ccccc3)cc(C(=O)OCC(=O)N3CCCCC3)c2c1

Screen / compound no.	33	34	35	36
miR122 inh	-20[16.7 µM]	-4[16.7 µM]	-4[16.7 µM]	1
UUG fidelity	2	0	-6	-7
Cneo AK release	-8	10	-1	1
FN deposit inh	·	·	·	-6
HIV Env fusion	87*[16.7 µM]	69*[16.7 µM]	66*[16.7 µM]	10
PGC1a acetyl inh	1	-10	-2	4
